Assay results taken from patent US20250145565A1 (BATTERJEE MEDICAL COLLEGE, priority 2021, published 2025).

Protein sequences, listed by entry. Tags and fused reporters are not part of them.
UniProt P00352, whole entry: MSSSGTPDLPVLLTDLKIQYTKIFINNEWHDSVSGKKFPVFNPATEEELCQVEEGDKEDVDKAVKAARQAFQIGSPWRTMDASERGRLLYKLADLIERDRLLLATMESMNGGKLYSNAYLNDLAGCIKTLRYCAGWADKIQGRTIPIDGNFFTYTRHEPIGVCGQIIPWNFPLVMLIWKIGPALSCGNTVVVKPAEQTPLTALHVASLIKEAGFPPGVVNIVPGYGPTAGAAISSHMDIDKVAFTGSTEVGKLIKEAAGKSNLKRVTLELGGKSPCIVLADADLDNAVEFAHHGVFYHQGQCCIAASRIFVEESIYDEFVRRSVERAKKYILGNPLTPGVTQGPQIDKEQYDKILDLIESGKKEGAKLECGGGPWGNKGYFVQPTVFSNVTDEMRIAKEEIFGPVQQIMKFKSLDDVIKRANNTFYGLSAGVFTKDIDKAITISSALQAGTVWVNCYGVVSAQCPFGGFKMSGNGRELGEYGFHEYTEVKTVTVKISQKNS
UniProt O00519, whole entry: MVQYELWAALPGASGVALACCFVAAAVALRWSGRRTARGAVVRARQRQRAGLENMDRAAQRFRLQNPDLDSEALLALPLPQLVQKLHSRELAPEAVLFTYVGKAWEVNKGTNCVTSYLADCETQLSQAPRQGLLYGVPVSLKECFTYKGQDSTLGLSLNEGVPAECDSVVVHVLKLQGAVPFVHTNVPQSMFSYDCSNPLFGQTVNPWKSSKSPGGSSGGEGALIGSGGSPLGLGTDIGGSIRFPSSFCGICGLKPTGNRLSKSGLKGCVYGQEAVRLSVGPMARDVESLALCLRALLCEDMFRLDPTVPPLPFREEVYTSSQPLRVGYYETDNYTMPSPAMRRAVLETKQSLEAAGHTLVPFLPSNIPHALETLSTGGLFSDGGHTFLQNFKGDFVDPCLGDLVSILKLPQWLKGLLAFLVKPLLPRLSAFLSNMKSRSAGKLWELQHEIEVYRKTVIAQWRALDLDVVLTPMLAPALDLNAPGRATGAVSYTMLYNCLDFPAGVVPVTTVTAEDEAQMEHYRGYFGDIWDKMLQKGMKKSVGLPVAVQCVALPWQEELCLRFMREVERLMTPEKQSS
UniProt Q99685, whole entry: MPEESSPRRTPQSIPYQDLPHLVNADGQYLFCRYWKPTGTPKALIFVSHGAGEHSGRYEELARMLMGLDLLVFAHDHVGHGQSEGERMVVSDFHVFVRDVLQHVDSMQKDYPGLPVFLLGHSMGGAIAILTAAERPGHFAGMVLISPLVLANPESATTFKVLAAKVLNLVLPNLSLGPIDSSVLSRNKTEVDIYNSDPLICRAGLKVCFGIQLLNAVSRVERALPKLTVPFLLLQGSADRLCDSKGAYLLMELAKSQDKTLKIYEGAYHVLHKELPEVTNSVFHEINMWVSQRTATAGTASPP

Key:
Format in all cases: biochemical
ALDH1a1 = ALDH1a1 (Homo sapiens (Human), UniProt P00352); experiment: ALDH assay (diaphorase/resazurin), ALDH1a1 inhibition
human FAAH (hFAAH) = human FAAH (hFAAH) (Homo sapiens (Human), UniProt O00519); experiment: FAAH enzyme inhibition assay (Cayman kit, AMC-arachidonoyl amide)
human MAGL (hMAGL) = human MAGL (hMAGL) (Homo sapiens (Human), UniProt Q99685); experiment: MAGL enzyme inhibition assay (4-nitrophenylacetate); settings: relative to disulfiram / unsubstituted analog

SMILES	IC50 (ALDH1a1; read-out: IC50 (μM) ± SE (ALDH1a1), Table IA, mean of at least two independent experiments) [µM]	activity against ALDH1a1 (in words) (ALDH1a1)	FAAH inhibitory activity (in words) (human FAAH (hFAAH))	decrease in inhibitory activity against MAGL (human MAGL (hMAGL))
S=C(SSC(=S)N1CCCCC1)N1CCCCC1	0.05	–	–	–
S=C(SSC(=S)N(Cc1ccccc1)Cc1ccccc1)N(Cc1ccccc1)Cc1ccccc1	–	complete loss of activity	complete loss of FAAH inhibitory activity	–
CCCCN(CCCC)C(=S)SSC(=S)N(CCCC)CCCC	–	–	no inhibition	up to 15 fold
